Measured values reported in US20150065499A1, “3-AMINOTHIENO[3,2-c]QUINOLINE DERIVATIVES, METHODS OF PREPARATION AND USES” (TEMPLE UNIVERSITY - OF THE COMMONWEALTH SYSTEM OF HIGHER …, priority 2012, published 2015).

Chains of the proteins cited; added tags and fusions are not shown. Lines headed by an entry give the natural chain unless they say otherwise; changes in a name come on top.
UniProt P48736: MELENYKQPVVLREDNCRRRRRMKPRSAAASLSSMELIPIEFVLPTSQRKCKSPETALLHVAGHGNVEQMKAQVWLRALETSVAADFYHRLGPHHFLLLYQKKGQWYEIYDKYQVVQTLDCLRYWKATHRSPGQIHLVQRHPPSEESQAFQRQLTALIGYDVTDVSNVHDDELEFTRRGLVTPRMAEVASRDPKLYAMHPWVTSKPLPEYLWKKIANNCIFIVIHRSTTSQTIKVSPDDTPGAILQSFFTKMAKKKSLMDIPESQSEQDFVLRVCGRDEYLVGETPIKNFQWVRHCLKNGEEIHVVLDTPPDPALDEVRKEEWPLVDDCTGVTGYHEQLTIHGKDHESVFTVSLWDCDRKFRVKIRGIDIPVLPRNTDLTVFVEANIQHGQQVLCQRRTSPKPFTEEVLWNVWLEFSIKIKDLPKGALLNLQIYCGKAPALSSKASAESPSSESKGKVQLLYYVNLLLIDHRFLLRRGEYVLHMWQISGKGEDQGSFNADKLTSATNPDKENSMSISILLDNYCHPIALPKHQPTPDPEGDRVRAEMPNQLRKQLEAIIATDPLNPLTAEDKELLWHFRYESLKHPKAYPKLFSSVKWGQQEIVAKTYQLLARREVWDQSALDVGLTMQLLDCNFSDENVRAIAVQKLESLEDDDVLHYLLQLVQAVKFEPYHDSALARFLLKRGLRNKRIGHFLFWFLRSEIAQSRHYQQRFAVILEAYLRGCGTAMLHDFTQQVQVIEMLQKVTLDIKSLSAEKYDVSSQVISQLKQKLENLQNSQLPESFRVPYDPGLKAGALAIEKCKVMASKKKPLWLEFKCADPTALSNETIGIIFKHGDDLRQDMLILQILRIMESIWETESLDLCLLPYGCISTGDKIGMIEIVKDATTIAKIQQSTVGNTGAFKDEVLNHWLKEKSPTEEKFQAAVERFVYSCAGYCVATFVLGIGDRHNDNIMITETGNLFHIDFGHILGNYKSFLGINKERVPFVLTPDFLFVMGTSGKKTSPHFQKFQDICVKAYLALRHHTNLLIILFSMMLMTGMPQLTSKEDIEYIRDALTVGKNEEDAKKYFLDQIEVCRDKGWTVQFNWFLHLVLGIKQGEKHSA
UniProt P42338: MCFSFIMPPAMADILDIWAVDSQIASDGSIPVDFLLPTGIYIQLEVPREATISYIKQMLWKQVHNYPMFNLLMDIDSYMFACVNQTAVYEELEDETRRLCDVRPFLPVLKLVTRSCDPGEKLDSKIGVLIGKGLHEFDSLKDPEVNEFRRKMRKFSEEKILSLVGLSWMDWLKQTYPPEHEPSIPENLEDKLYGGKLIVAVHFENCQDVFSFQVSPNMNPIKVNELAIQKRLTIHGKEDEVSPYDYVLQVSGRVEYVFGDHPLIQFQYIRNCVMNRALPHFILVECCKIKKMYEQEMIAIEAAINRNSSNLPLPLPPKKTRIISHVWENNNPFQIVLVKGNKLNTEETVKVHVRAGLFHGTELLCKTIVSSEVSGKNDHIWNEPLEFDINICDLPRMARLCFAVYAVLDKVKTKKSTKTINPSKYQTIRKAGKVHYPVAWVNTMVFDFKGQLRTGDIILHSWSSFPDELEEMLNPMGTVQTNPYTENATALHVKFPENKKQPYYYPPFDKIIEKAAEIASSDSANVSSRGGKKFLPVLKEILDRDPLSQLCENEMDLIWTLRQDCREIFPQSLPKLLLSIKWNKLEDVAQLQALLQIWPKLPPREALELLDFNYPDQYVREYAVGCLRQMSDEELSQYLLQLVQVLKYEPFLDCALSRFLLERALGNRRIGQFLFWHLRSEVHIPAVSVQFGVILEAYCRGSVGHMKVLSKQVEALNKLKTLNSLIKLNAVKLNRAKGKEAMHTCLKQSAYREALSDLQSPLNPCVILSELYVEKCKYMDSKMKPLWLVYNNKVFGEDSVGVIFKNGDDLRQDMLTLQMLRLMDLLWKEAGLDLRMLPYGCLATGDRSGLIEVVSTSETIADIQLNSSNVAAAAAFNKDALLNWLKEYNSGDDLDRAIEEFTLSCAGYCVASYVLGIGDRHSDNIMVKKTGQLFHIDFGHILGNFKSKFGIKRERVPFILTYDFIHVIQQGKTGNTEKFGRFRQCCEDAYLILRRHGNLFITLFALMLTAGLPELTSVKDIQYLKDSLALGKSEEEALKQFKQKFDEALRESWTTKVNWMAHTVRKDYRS

Columns and labels:
Human PI3Kγ (p120γ) = biological target: T1, Human PI3Kγ (p120γ) (Homo sapiens, UniProt P48736); experiment: PI3K isoform HTRF enzyme assay, PI3Kγ; type: biochemical; conditions: 10 μM PIP2, 10 μM ATP, read-out: IC50 against PI3Kγ
T1 construct: His (N); host or cells: Baculovirus infected insect cells (printed 'SP)', probably a misprint of Sf9)
Method: (§1) The compound of Example 18, methyl 3-(4-fluorobenzamido)-7,8-dimethoxythieno[3,2-c]quinoline-2-carboxylate, was tested for ability to inhibit the four PI3K isoforms PI3Kα, PI3Kβ, PI3Kδ and PI3Kγ in a homogeneous time-resolved fluorescence (HTRF) enzyme assay.
(§2) The assay relies on the action of the aforesaid kinases on the substrate phosphatidylinositol (4,5)-bisphosphate (PIP2), providing the product phosphatidylinositol (3,4,5)-trisphosphate (PIP3). The PIP3 product is detected by displacement of biotin-PIP3 from an energy transfer complex consisting of Europium labeled anti-GST monoclonal antibody, a GST-tagged pleckstrin homology (PH) domain, biotinylated PIP3 and Streptavidin-Allophycocyanin (APC). Excitation of Europium in the complex results in an energy transfer to the APC and a fluorescent emission at 665 nm. The PIP3 product formed by PI 3-kinase(h) activity displaces biotin-PIP3 from the complex resulting in a loss of energy transfer and thus a decrease in signal. […]
(§3) The enzymes (PI3Kα, PI3Kβ, PI3Kδ or PI3Kγ) were delivered into the following kinase reaction buffer containing 10 μM PIP2 substrate: HEPES 50 mM (pH7.0), NaN3 0.02%, BSA 0.01%, Orthovanadate 0.1 mM, 1% DMSO. […] Homogeneous time-resolved fluorescence (HTRF) was measured (Ex=320 nm, ratio of Em=615 nm and Em=665 nm). […]

Human PI3Kβ (p110β/p85α) = biological target: T2, Human PI3Kβ (p110β/p85α) (Homo sapiens, UniProt P42338); experiment: PI3K isoform HTRF enzyme assay, PI3Kβ; type: biochemical; conditions: 10 μM PIP2, 10 μM ATP, read-out: IC50 against PI3Kβ
T2 construct: N-terminal 6His-tagged recombinant full-length human p110β; 6His (N); host or cells: Baculovirus infected Sf21 cells
Method: as §1, §2, §3

IC50 (Human PI3Kγ (p120γ)): 896 nM | IC50 (Human PI3Kβ (p110β/p85α)): 2060 nM
SMILES: O=c1cc(N2CCOCC2)oc2c(-c3ccccc3)cccc12 [LY294002, 2-(4-morpholinyl)-8-phenyl-chromone, reference compound]
